Biological target: Orexin/Hypocretin receptor type 1 (Homo sapiens, UniProt O43613)
Assay: Antagonist activity at human OX1 receptor expressed in CHO cells assessed as inhibition of receptor-mediated calcium response by FLIPR
Type: functional, cell-based

By UniProt entry, the sequences of proteins in these tests, tags left out.
UniProt O43613, whole entry: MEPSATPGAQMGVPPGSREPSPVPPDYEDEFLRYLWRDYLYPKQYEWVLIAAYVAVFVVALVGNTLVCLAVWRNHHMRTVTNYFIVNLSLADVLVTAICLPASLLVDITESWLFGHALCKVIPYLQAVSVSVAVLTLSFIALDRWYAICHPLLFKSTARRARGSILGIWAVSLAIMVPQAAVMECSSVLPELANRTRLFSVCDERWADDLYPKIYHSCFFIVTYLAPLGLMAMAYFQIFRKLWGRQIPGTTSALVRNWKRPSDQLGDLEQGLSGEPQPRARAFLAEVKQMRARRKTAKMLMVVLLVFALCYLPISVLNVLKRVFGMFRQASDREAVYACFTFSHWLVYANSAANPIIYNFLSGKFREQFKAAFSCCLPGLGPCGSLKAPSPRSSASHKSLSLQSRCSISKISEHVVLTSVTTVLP

SMILES	pKb
Cc1cc2cc(NC(=O)Nc3ccnc4ccccc34)ccc2n1C	7.3
COc1ccc(NC(=O)Nc2ccnc3ccccc23)cc1Cl	7.4
